The values that follow come from patent publication US20050196403A1 (published 2005).

One test has as its target HLA-B*5301 (Human). The test can be described thus: competition vs 125I probe, purified HLA.
For a further test, the target named is HLA-B*5101 (Human). Nature of the test: competition vs 125I probe, purified HLA.
The next test has as its target HLA-B*5401 (Human). Nature of the test: competition vs 125I probe, purified HLA.
In the next test the target is HLA-A*3101 (human). The test can be described thus: competition with 125I probe peptide, purified HLA class I.
A further test concerns the target HLA-A*0301 (human). The description is as above.
A further test deals with HLA-A*6801 (human). The description is as above.

In the case of FPALNKMFCQL [48.0234 FPALNKMFCQL (p53.127.F1)], in the test with HLA-B*5301, the half-maximal inhibitory concentration (IC50) (commonly the concentration that gives 50% inhibition) was found to be 7.75 µM. For FPALNKMF [48.0055 FPALNKMF (p53.127.F1)], the half-maximal inhibitory concentration (IC50) with HLA-B*5101 was 18.3 µM. In turn, FPQPKKKPI [48.0127 FPQPKKKPI (p53)] gave an IC50 with HLA-B*5401 of 16.7 µM. Regarding RVBABPGRDRK (B at positions 3 and 5 is alpha-amino butyric acid (in place of cysteine)) [1371.31 RVBABPGRDRK p53.273.B3B5K11], the results for the IC50 with HLA-A*3101 and with HLA-A*0301 were 4.62 µM and 0.314 µM, respectively. Regarding KVFBQLAK (B at position 4 is alpha-amino butyric acid (in place of cysteine)) [1371.18 KVFBQLAK p53.132.V2B4], the concentration for half-maximal inhibition (IC50) with HLA-A*6801 worked out at 8.89 µM. For FPGTRVRAI [48.0123 FPGTRVRAI (p53.152.F1)], the IC50 with HLA-B*5301 was 23.2 µM; with HLA-B*5401, 2.44 µM.
